Values quoted from earlier work as cited in patent US8202852B2, “Creatine phosphate analog prodrugs, compositions and uses thereof” (XenoPort, Inc., priority 2006, dated 2012).

Conditions: ALS

SMILES: Nc1nc2ccc(OC(F)(F)F)cc2s1 [riluzole]
- extension of survival: about three
